This is an account of results in patent publication US9375422B2.

The series in a line: Solubility of fentanyl in softeners. The conditions noted are these: in words.

Some compounds may have been tested in ways that are not shown here.

In the case of `CCC(=O)N(c1ccccc1)C1CCN(CCc2ccccc2)CC1`, the “solubility of fentanyl in liquid paraffin and polybutene” value was “higher in polybutene than in liquid paraffin”.
